Experiments:
[1] = target: T1, ETB receptor (Sus scrofa, UniProt P35463); test: Inhibition of [125I]ET-3 binding to porcine lung membranes; settings: against 10 pM [125I]ET-3, porcine lung membrane, 37°C, 1 h
T1 sequence (P35463 27-443): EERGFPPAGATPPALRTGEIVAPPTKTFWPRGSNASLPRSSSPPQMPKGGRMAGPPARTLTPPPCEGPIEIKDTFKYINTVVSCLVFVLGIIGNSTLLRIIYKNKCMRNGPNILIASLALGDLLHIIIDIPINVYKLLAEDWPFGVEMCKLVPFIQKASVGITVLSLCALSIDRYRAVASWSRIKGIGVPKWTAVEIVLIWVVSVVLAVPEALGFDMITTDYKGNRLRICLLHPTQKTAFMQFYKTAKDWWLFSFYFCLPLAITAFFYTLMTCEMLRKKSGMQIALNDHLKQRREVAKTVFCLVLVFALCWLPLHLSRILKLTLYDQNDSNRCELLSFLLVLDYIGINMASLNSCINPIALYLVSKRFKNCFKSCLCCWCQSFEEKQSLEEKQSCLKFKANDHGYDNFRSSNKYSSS

[2] = target: T2, ETA receptor (Sus scrofa, UniProt Q29010); settings: against 30 pM [125I]ET-1 with 1 nM unlabeled ET-3, porcine lung membrane, 37°C, 1 h
T2 sequence (Q29010 21-427): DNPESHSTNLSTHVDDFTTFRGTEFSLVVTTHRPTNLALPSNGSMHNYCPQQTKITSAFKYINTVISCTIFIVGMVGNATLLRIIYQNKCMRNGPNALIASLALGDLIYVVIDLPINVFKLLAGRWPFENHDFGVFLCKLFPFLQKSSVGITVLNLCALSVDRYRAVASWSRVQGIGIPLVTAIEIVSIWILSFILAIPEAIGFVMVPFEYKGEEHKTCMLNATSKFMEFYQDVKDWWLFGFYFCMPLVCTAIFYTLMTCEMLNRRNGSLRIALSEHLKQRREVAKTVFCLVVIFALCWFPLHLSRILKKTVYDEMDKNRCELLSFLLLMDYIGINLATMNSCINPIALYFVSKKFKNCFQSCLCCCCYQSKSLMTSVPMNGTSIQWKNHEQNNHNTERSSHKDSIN

Ki [1]: 8 pM | Ki [2]: 15 nM
SMILES: CC[C@H](C)[C@H](NC(=O)[C@H](CC(=O)O)NC(=O)[C@H](CC(C)C)NC(=O)[C@H](Cc1c[nH]cn1)NC(=O)[C@@H]1CSSC[C@H](N)C(=O)N[C@@H]([C@@H](C)O)C(=O)N[C@H]2CSSC[C@H](NC(=O)[C@H](CCC(=O)O)NC(=O)[C@H](CCCCN)NC(=O)[C@H](CC(=O)O)NC(=O)[C@H](CCCCN)NC(=O)[C@H](Cc3ccc(O)cc3)NC(=O)[C@H]([C@@H](C)O)NC(=O)[C@H](Cc3ccccc3)NC2=O)C(=O)N[C@@H](C(C)C)C(=O)N[C@@H](Cc2ccc(O)cc2)C(=O)N[C@@H](Cc2ccc(O)cc2)C(=O)N1)C(=O)N[C@H](C(=O)N[C@@H](Cc1c[nH]c2ccccc12)C(=O)O)[C@@H](C)CC [ET-3, endothelin-3]
